Target: mouse Keap1-DC (aa321-609, SEQ ID No. 24) (Mus musculus, UniProt Q9Z2X8)
Assay: isothermal titration calorimetry, binding to Keap1-DC
Details: 25° C.
Protocol: Binding isotherms were obtained using isothermal titration calorimetry, for the interaction of mouse Keap1-DC (aa321-609, SEQ ID No. 24) with KIR in mouse non-phosphorylated p62 (SEQ ID No. 21), KIR in mouse phosphorylated p62 (SEQ ID No. 21), or an ETGE motif of mouse Nrf2 (SEQ ID No. 26) (FIG. 2).
First, isothermal titration calorimetry was performed using MicroCal iTC200 System (GE Healthcare) at 25° C. 2.5 μl of 0.1 mM solution of non-phosphorylated KIR (^348[…]^356, SEQ ID No. 21) was injected from a rotating syringe (1000 rpm) into 200 μl of 0.1 mM solution of Keap1-DC sixteen times at an interval of 3 minutes. 1.3 μl of 0.6 mM phosphorylated KIR (^348VDP(pS)TGELQ^356) solution was injected from a rotating syringe (1000 rpm) into 200 μl of 0.06 mM Keap1-DC solution thirty times at an interval of 2 minutes. 1 μl of 0.4 mM solution of Nrf2-ETGE motif (^76[…]^84, SEQ ID No. 26) were injected from a rotating syringe (1000 rpm) into 200 μl of 0.04 mM of Keap1-DC (SEQ ID No. 24) forty times at an interval of 2 minutes. The binding data were analyzed using Origin 7 software (GE healthcare).

Sequences of proteins named here, by UniProt entry; tags and fusion partners are left off. A change or cut given only in a name is not applied to a line headed by its entry. Residues count along the entry.
UniProt Q9Z2X8, 321-609: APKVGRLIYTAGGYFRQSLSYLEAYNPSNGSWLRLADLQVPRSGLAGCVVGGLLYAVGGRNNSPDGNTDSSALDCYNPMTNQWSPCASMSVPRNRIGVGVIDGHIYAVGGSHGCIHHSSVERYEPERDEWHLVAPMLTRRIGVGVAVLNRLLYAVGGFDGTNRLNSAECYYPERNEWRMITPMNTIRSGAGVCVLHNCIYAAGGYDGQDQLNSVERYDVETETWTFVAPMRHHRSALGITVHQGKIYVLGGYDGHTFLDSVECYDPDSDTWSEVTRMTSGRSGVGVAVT

Binding constant (Ka) to Keap1-DC: (6.83±2.16)×10^6 M^−1
Substance: Nrf2-ETGE: ETGE motif peptide of mouse Nrf2, 76LDEETGEFL84, SEQ ID No. 26 [reference compound]

— patent publication US9632092B2, “Reagent for diagnosing tumor, pharmaceutical composition, and screening method” (Tokyo Metropolitan Institute of Medical Science, priority 2012, dated 2017)
